The values below come from article PMC6842937.

In this assay the target is Hsp27 (full length) (UniProt P04792). As to the kind of experiment: BLI; biotinylated Hsp (25 μg/mL) loaded on streptavidin biosensors, α-syn monomer in solution at different concentrations; Octet RED96, 30°C, 50 mM Tris–HCl, 150 mM NaCl, pH 7.0; association 3 min, dissociation 8 min. In general terms: BLI is a label-free optical method that tracks binding on a fibre tip over time.

One may read the Kd as the constant that tells how readily two partners part at equilibrium. Low readings indicate tighter binding, high ones weaker binding. “α-Synuclein (from UniProt P37840 1-140) (natural protein; other documents disagree on this pair)” showed a Kd of 200 µM.
